Antibody variant affinities, Ab-14 heavy chain, assay 1

Source: Engelhart et al. 2022 (doi:10.1038/s41597-022-01779-4), MIT Lincoln Laboratory and A-Alpha Bio; data file from the FLAb repository.

All variants were tested on one target, the spike HR2 peptide PDVDLGDISGINAS (SARS-CoV-2).

Ab-14 is the parent antibody, in scFv form: VH, then a (GGGGS)3 linker, then VL. The light chain is unchanged in all variants.
VH: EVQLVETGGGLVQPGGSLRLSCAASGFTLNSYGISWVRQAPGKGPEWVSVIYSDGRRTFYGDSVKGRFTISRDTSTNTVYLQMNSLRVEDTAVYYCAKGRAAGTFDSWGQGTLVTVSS
VL: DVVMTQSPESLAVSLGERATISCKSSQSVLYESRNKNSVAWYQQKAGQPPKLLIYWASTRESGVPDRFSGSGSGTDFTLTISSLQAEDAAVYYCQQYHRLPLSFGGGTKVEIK

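Variants in AAYL49 differ from the parent at up to three CDR positions; double and triple changes were sampled at random. The scFvs were displayed on barcoded MATa yeast, the peptide on MATalpha yeast. The frequency of each diploid, read from paired DNA barcodes, reflects how well the two displayed proteins bind. The ratio of observed to expected reads was calibrated, replicate by replicate, on BCL2-family standards whose Kd was known from biolayer interferometry. The assay was run in three technical replicates.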

Variants are written as CDR1, CDR2 and CDR3 of the heavy chain (limits as in the source). Parent: GFTLNSYGIS, VIYSDGRRTFYGDSVK, GRAAGTFDS. Each Kd is an estimate from the mating assay, the geometric mean of the replicates in which the pair was seen; lower is stronger. "not detected" means that the variant was in the library but no mating with the target was seen in any replicate; the authors take this as a sign of poor binding, and no number exists. In this assay the parent's reference entry averaged 4.4 nM; its copy inside this library read 13 µM (one replicate of three).

Kd (apparent)	replicates with signal	CDR-H1	CDR-H2	CDR-H3
2.0 mM	1 of 3	GFTLNSYGIV	VIYSDGRRTFYGDFVK	GRPAGTFDS
not detected	0 of 3	GFTLNSYGIS	VIYSDGRRTNYGQSVK	GRAAGTFCS
1.8 µM	3 of 3	GFTLNSYGIS	VIYSDGRRTIYGDSVK	GRAAGTFLP
7.9 µM	2 of 3	AFTLNSYGIS	VIYSDGRRTFYGDSEK	GWAAGTFDS
2.0 µM	2 of 3	GGCLNSYGIS	VIYSDGRRTFYCDSVK	GRAAGTFDS
3.4 µM	1 of 3	GHTLNSYGIS	VIYSDIDRTFYGDSVK	GRAAGTFDS
16 µM	3 of 3	GFTMNSYGPS	VIYSDGTRTFYGDSVK	GRAAGTFDS
18 µM	1 of 3	GFTRNSYGIS	VIYGDGRRTFYGDAVK	GRAAGTFDS
not detected	0 of 3	GFTLNSYGIS	VIYSDGRRTFYGTSTK	PRAAGTFDS
2.6 µM	2 of 3	GFQLNSYGIS	VIYHDGRRTFYGDSVK	GRAAGSFDS
not detected	0 of 3	GFTLNSYGMS	VIYSDGRRTFFGDSVK	GRAAGTFDS
not detected	0 of 3	GFTLNSYGIS	VIYSYGRRTFCGDSVK	GYAAGTFDS
not detected	0 of 3	AFTLNSYGIS	VIYSDGRRTTYGDSVK	GRAAGIFDS
19 µM	1 of 3	GFTLNSYGIY	VIYDDGRRTFYGDSVK	GRAAGTFDS
400 nM	3 of 3	GPTLNSYGIS	VIYSDGRRTFYGDSVK	GRAAWTFDS
not detected	0 of 3	GFTLNYYGIS	VIYSDGRGTFYGDSVK	NRAAGTFDS
13 µM	1 of 3	GFILNSYGIS	VIYSDGRRTFYGDSVK	GRAAGTPDS
not detected	0 of 3	GFTLNSYHIS	VIYSDGRRTFYHDSVK	GRAAGTFDS
120 µM	2 of 3	GFTLNSYGHS	VIYSDGRRTFYGDSVK	GRCAGTFDS
not detected	0 of 3	GFTYNTYGIS	VIYSDGRRTFYGDSVK	YRAAGTFDS
not detected	0 of 3	GFNLNSYGSS	VIYSMGRRTFYGDSVK	GRAAGTFDS
not detected	0 of 3	GFTINSYGIS	VIYSGGRRTFYGDSVK	PRAAGTFDS
not detected	0 of 3	GFTLNSYGIY	VIYSDGRRTFFGDSVK	PRAAGTFDS
17 nM	2 of 3	GFMLNSYGIS	VIYADGCRTFYGDSVK	GRAAGTFDS
3.1 µM	2 of 3	GFTLMSYGIS	VIYQDGRRTFYGDSVK	GNAAGTFDS
not detected	0 of 3	GFTLNSKGIS	VIYQDGRFTFYGDSVK	GRAAGTFDS
not detected	0 of 3	GFTLNSYGIS	VIYSDGRDTFYGDSVK	GSAAGTFDS
27 nM	3 of 3	GFTLNSYGIS	VSYSDGRRTFYIDSVK	GNAAGTFDS
6.6 µM	1 of 3	GFTLNSYGIS	VVYSDYRRTFYGDSVK	IRAAGTFDS
1.9 µM	2 of 3	GFTLNSYGIS	VIYSDGRRTFYGDSVK	GRAADTFHS
not detected	0 of 3	GFTLMSYGIS	VIYSKGRRTFYGDSVK	GRAAGLFDS
42 µM	1 of 3	GTTLNSYIIS	VIYSDGRRTFYGDSVN	GRAAGTFDS
42 µM	1 of 3	GFTLNSYGIK	VIYSDGRRTFGGDSVK	GRAAGTRDS
not detected	0 of 3	GFCINSYGIS	VIYFDGRRTFYGDSVK	GRAAGTFDS
180 µM	1 of 3	KFTLNSYGVS	VIYSDGRRTFYGYSVK	GRAAGTFDS
54 nM	3 of 3	GFTLNSYGIS	VIYSDGRRTMYGDSVK	GRDAGTDDS
not detected	0 of 3	GFTLNSYGIS	VIYDDGRRTFYGDSVK	QRAAGTFDS
not detected	0 of 3	GFTLNSYGIS	VITSDGRRTFVGDSVK	GRAAGPFDS
not detected	0 of 3	GFTLNSYGIC	VYYSDHRRTFYGDSVK	GRAAGTFDS
not detected	0 of 3	SFTLNSYGIS	AIYSDGRRTFYGDSVK	GRAAGMFDS
not detected	0 of 3	GFTLWSYGIS	VIYSDGRRIFYGDSDK	GRAAGTFDS
100 µM	2 of 3	GFTLNSYGIS	VIYSWGRRNFYGDSVK	GRAAGTFDS
150 µM	1 of 3	GFILCSYGIS	MIYSDGRRTFYGDSVK	GRAAGTFDS
150 µM	2 of 3	GFTLNSYNIS	VIYSDPRRTFYGDSVK	GRAAGTNDS
9.8 µM	1 of 3	IFTLNSYGIS	VIYSDGRRTFYGDSVK	GRAGGTFDS
74 nM	3 of 3	GFTLNRYGIT	VIYSDGRRTFYGDSVK	GRAAGTFDS
not detected	0 of 3	VFTLNSYGIS	VIYSDGRRTFYGDSVK	WRAAGAFDS
not detected	0 of 3	GFTLNSYGIS	GIYSDGRVTFYVDSVK	GRAAGTFDS
not detected	0 of 3	GFTLNSYGIS	VIYSDGRRTFMGDSVK	GRGAETFDS
31 µM	1 of 3	GFTLNSYRIS	VIYSDGRRTFYGDSVE	PRAAGTFDS
25 µM	2 of 3	GFTLNSYGIG	VIYSDGRRYFYGDSVK	GRAAGTNDS

As a blank, each scFv also met three strains without target: over library AAYL49, 15% of these pairings were detected, typically at 11 µM and seldom below 680 nM.